# From patent US9512175B2, “Macrocyclic inhibitors of flaviviridae viruses” (Gilead Sciences, Inc., priority 2012, dated 2016)
# Amino acid sequences for entries named in this document (tags omitted).
# UniProt P62937, whole entry: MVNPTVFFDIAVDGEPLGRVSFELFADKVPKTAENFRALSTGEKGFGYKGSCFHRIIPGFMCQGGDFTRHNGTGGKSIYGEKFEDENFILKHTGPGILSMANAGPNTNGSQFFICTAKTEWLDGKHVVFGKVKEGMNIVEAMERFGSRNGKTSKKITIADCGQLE
# Target: cyclophilin A (Homo sapiens, UniProt P62937)
# Assay: Cyclophilin A TR-FRET competitive binding assay
# Details: read-out: TR-FRET; IC50 ranges; competition with CsA-Cy5 for His-tagged CypA, two-hour incubation
row,Structure (SMILES),IC50 [nM]
1,"CC(C)[C@@H]1NC(=O)C(C)(C#N)/C=C/c2ccc3ccc(nc3c2)[C@@H](C)OC(=O)[C@@H]2CCCN(N2)C(=O)[C@H](C)NC1=O (single isomer, unassigned)",< 100
2,"CC(C)[C@@H]1NC(=O)C(C)(C(C)(C)O)/C=C/c2ccc3ccc(nc3c2)[C@@H](C)OC(=O)[C@@H]2CCCN(N2)C(=O)[C@H](C)NC1=O (single isomer, unassigned)",< 100
3,"CC(C)[C@@H]1NC(=O)C(C)(C(C)O)/C=C/c2ccc3ccc(nc3c2)[C@@H](C)OC(=O)[C@@H]2CCCN(N2)C(=O)[C@H](C)NC1=O (single isomer, unassigned)",< 100
4,"COCC1NC(=O)[C@H](C(C)C)NC(=O)C(C)(C)/C=C/c2ccc3ccc(nc3c2)[C@@H](C)OC(=O)[C@@H]2CCCN(N2)C1=O (single isomer, unassigned)",101 to 1000
5,CC(C)[C@@H]1NC(=O)C2(/C=C/c3ccc4ccc(nc4c3)[C@@H](C)OC(=O)[C@@H]3CCCN(N3)C(=O)[C@H](C)NC1=O)CCOC(C)(C)C2 (some centres unmarked) [Compound 123],< 100
